Reference: patent US20180193365A1, “USE OF HYDROGEN SULFIDE TO PREVENT LENS OPACIFICATION” (Creighton University, priority 2017, published 2018)

Tested on: superoxide dismutase (SOD) enzyme
Conditions: 50 mM; 120 hours

OO [H2O2, hydrogen peroxide]
attenuation of SOD content compared to untreated lenses (time=0 hours): 86.59%
